Source: patent US5650442A, “Use of nitric oxide releasing compounds as hypoxic cell radiation sensitizers” (priority 1994, dated 1997)

Tested on: Chinese hamster V79 lung fibroblasts
Assay: Radiation survival of hypoxic V79 monolayers gassed with nitrogen and exposed to NO gas
Type: cell-based
Conditions: hypoxic cell radiosensitization
Experimental: Hypoxic Chinese hamster V79 lung fibroblasts of Example 2 were irradiated at room temperature with 4 MeV photons from a linear accelerator at a dose rate of 1.5 Gy/min. Full electron equilibrium was ensured for all irradiations.
Following irradiation, the various cell suspensions were pipetted, counted, diluted, and plated for macroscopic colony formation. Each dose determination was plated in triplicate and experiments were repeated a minimum of two times. Plates were incubated for seven days, after which colonies were fixed with methanol/acetic acid (3:1), stained with crystal violet, and counted. Colonies containing >50 cells were scored and graphed as FIGS. 1-3. Error bars in the graphs represent the standard deviation of the mean and are shown when larger than the symbol used to designate a data point. Survival curve data were fitted using a linear quadratic model of Albright (Radiat. Res., 112, 331-340 (1987)), and the survival curves shown in the figures represent the best fit curves for the experimental data points. Sensitizer enhancement ratios (SER) were calculated by dividing the radiation dose for control hypoxic conditions by the radiation dose for various agents under hypoxic conditions at the 1% surviving fraction level.

How did the “k value (concentration required to yield half the maximum effect)” value turn out when nitric oxide [NO gas] was run?
The value was 10^4 ppm.
